Experimental data taken from patent publication US9902707B2, “Detergent compositions” (Innospec Limited, priority 2013, dated 2018).

System: Zein
Conditions: 1% surfactant solution; qualitative comparison with commercial personal care surfactants

## LAUROYL THIAMINE
  Irritancy/mildness: milder than many commercially available personal care surfactants including Sodium Laureth Sulfate (3EO) [SLES]
